# Data from PubChem BioAssay AID731 (The Scripps Research Institute Molecular Screening Center, 2007).
# Protein sequences, listed by entry. Tags and fused reporters are not part of them. Lines headed by an entry give the natural chain unless they say otherwise; changes in a name come on top.
# UniProt P37231: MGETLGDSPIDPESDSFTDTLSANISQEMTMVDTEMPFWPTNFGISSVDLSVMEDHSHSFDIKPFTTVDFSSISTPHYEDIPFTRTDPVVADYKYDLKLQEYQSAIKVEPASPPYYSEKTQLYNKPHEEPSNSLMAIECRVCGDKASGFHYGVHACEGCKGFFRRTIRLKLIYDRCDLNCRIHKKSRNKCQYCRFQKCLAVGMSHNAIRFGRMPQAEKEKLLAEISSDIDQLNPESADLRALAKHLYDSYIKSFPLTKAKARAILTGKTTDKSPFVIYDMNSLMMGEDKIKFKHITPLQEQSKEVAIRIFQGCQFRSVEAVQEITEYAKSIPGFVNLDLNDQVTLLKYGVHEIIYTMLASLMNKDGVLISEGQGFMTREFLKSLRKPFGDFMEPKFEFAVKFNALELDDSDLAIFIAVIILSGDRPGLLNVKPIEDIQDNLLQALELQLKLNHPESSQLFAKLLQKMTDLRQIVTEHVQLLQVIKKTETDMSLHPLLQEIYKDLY
# This is a selection; strong and weak results do not stand in their true shares. Active and inactive are the calls of the source. No stated cut-off is given here; in the data, active means activation above about 23%; inactive means the rest.
# Biological target: Peroxisome proliferator-activated receptor gamma (Homo sapiens) (UniProt P37231)
# Assay: enhancers of SRC-3 binding to PPARgamma – biochemical, primary screen (AID 731);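 further: 0% = DMSO and 100% = reference agonist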
# Conditions: biochemical PPARgamma/SRC-3 coactivator recruitment assay; at 8 µM; active compounds read high
row,SMILES,activation
1,CCN(N=Nc1nonc1N)c1nonc1N,inactive: 0.48%
2,Cc1cc(SC(NC(=O)c2ccc(F)cc2)C(Cl)(Cl)Cl)ncn1 (stereo not given),inactive: 3.06%
3,CCOP(=O)(Nc1ccccc1)OCC,inactive: 0.35%
4,Oc1ccccc1CNc1ccccn1,inactive: 8.23%
5,O=C(NC(Sc1ccncn1)C(Cl)(Cl)Cl)c1ccccc1 (stereo not given),inactive: 6.17%
6,Cc1c2non([O-])c-2c(C)[n+](=O)[n+]1[O-],inactive: 9.57%
7,CC(C)CC(=O)NC(Sc1ccc(Cl)cc1)C(Cl)(Cl)Cl (stereo not given),inactive: -3.73%
8,CN1CCCC(OC(=O)C(c2ccccc2)c2ccccc2)C1 (stereo not given),inactive: -0.16%
9,Clc1ccc(Cl)c(NC2=NCC(CBr)S2)c1 (stereo not given),inactive: 0.17%
10,COc1ccccc1OP(=O)(Nc1ccc(C)cn1)Oc1ccccc1OC,inactive: 18.5%
11,Cc1ccc(N/C(=N/P(=O)(N2CCOCC2)N2CCOCC2)N2CCOCC2)cc1,inactive: 5.06%
12,NC(=O)c1cc([N+](=O)[O-])cc([N+](=O)[O-])c1N,inactive: -0.13%
13,CC1CCN(C(=O)Oc2c(Cl)cc(Cl)c3cccnc23)CC1,inactive: 3.36%
14,CC(C)=N/N=C(\N)N[N+](=O)[O-],inactive: -1.92%
15,CN(C)C(=O)OCCc1n(C)cc[n+]1C,inactive: -2.91%
16,CCN(/C(=N/P(=O)(N1CCOCC1)N1CCOCC1)N1CCOCC1)c1ccc(OC)cc1,inactive: 0.48%
17,Cc1ccc(NP(=O)(Oc2ccccc2)Oc2ccccc2)nc1,inactive: -3.31%
18,CCc1nc2c(n1)c1c(non1O)c1c2no[n+]1[O-],inactive: -2.91%
19,O=[N+]([O-])c1cc([N+](=O)[O-])c(CCNc2ccccc2)c([N+](=O)[O-])c1,inactive: 5.96%
20,O=[N+]([O-])c1cccc2n[nH]nc12,inactive: 10.9%
21,CC(=O)N1C2C3N(C(C)=O)C1C1N(C(C)=O)C(C(N1C(C)=O)N3C(C)=O)N2C(C)=O,inactive: -2.46%
22,COc1ccc(C2=NCC(CBr)S2)cc1 (stereo not given),inactive: -1.89%
23,O=[N+]([O-])c1ncn(CCn2ncnc2[N+](=O)[O-])n1,inactive: 1.44%
24,O=C(OC1CN2CCC1CC2)c1cccc(Cl)c1 (stereo not given),inactive: 7.7%
25,C(Cc1nn[nH]n1)Cc1nn[nH]n1,inactive: -3.12%
26,CC(=O)NC(SC(=S)N(C)C)C(Cl)(Cl)Cl (stereo not given),inactive: -2.53%
27,O=P(Nc1ccccn1)(c1ccc(Br)cc1)c1ccc(Br)cc1,inactive: 4.11%

row,SMILES,activation
1,c1nnnn1CCn1cnnn1,inactive: -1.48%
2,CC(C)C(=O)NC(Sc1ccccc1)C(Cl)(Cl)Cl (stereo not given),inactive: 3%
3,O=P(Nc1nccs1)(c1ccccc1)c1ccccc1,inactive: -2.68%
4,CC(=O)Nc1ccc(Oc2c([N+](=O)[O-])cc([N+](=O)[O-])cc2[N+](=O)[O-])cc1,inactive: 8.37%
5,CC(C)(C)C(=O)NC(Sc1ccccc1)C(Cl)(Cl)Cl (stereo not given),inactive: -0.08%
6,O=P1(Nc2nc3ccc(Cl)cc3s2)COc2ccccc2O1 (stereo not given),inactive: 12.7%
7,CCOc1ccc(C2=NCC(CBr)S2)cc1 (stereo not given),inactive: 4.11%
8,O=c1c2cc([N+](=O)[O-])ccc2[nH]c2c([N+](=O)[O-])cc([N+](=O)[O-])cc12,inactive: 2.56%
9,CCC(=O)N1C2C3N(C(=O)CC)C1C1N(C(=O)CC)C(C(N1C(=O)CC)N3C(=O)CC)N2C(=O)CC,inactive: -6.11%
10,COC(=O)c1cc2c(s1)N=C(c1ccccc1)N(C)P2(=O)N1CCOCC1 (stereo not given),inactive: 2.32%
11,CC(=O)NC(SC(=S)N(CC(C)C)CC(C)C)C(Cl)(Cl)Cl (stereo not given),inactive: 3.66%
12,Cc1ccc(OP(=O)(Nc2ccccn2)Oc2ccc(C)cc2)cc1,inactive: -1.07%
13,c1ccc(-c2nn[nH]n2)c(-c2nn[nH]n2)c1,inactive: 0.69%
14,CCOC(=O)NC(Sc1ccccc1)C(Cl)(Cl)Cl (stereo not given),inactive: -10.4%
15,CCNC(=S)/N=C(\N)N[N+](=O)[O-],inactive: 0.95%
16,O=C(NC1CCS(=O)(=O)C1)NP(=S)(Oc1ccccc1)Oc1ccccc1 (stereo not given),inactive: 5.08%
17,CCOP1(=S)c2c(C)nn(CCC#N)c2N=C(c2ccc(F)cc2)N1C (stereo not given),inactive: -14.9%
18,O=[N+]([O-])c1ccc2c(c1)nnn2O,inactive: 13%
19,CCOP1(=S)c2c(C)nn(CCC#N)c2N=C(c2ccccc2F)N1C (stereo not given),inactive: -4.31%
20,O=P(Nc1nccs1)(Oc1ccccc1)Oc1ccccc1,inactive: 0.14%
21,O=P(Nc1nccs1)(c1ccccc1)c1nc2ccccc2s1 (stereo not given),inactive: -1.5%
22,COc1cc(C2NCCC3(OCCO3)C2(C)C)cc(OC)c1OC (stereo not given),inactive: 6.59%
23,CCOP(=O)(Nc1cccc2ccccc12)OCC,inactive: 2.35%
24,Cc1ccc(NCCc2c([N+](=O)[O-])cc([N+](=O)[O-])cc2[N+](=O)[O-])cc1,inactive: 3.92%
25,Cc1cccc(OCC(=O)OC2CN3CCC2CC3)c1 (stereo not given),inactive: -1.41%
26,COc1cc(C(=O)NCC2(N3CCOCC3)CCCCC2)cc(Cl)c1OC(C)C,inactive: 4.84%
27,CC(C)/C=N\N=C(\N)N[N+](=O)[O-],inactive: -1.96%

row,SMILES,activation
1,CN(C(=O)Cc1ccc(Cl)c(Cl)c1)[C@@H]1CCCC[C@H]1N1CCCC1,inactive: -5.9%
2,CC1(CBr)Cn2c(nc3ccccc3c2=O)S1 (stereo not given),inactive: 2.89%
3,Clc1n[nH]nc1-c1nn[nH][15n]1,inactive: -3.74%
4,O=P1(Nc2ccccn2)COc2ccccc2OC1,inactive: 8.27%
5,Cc1ccc(OCC(=O)OC2CN3CCC2CC3)cc1 (stereo not given),inactive: 0.12%
6,O=P1(Nc2ccc(Br)cn2)COc2ccccc2OC1,inactive: -1.75%
7,O=P1(Nc2ncccn2)COc2ccccc2OC1,inactive: -2.97%
8,CN(C)C1(CNC(=O)c2ccc(S(C)(=O)=O)cc2)CCCCC1,inactive: -0.31%
9,Cc1nn(-c2ccccc2)c2c1P(=O)(N1CCOCC1)N(C)C(c1ccccc1)=N2 (stereo not given),inactive: 0.55%
10,CC1CCC(C(C)C)C(OP(=O)(Nc2ccccn2)c2ccccc2)C1 (stereo not given),inactive: -1.89%
11,O=P(Nc1ccccn1)(c1cccc2ccccc12)c1cccc2ccccc12,inactive: 0.51%
12,Cc1cc(SC(NC=O)C(Cl)(Cl)Cl)ncn1 (stereo not given),inactive: -0.18%
13,Cc1cc(SC(NC(=O)c2ccccc2)C(Cl)(Cl)Cl)nc(C(C)C)n1 (stereo not given),inactive: 1.63%
14,CCC(C)N(CC(C)C)C(=S)SC(NC(C)=O)C(Cl)(Cl)Cl (stereo not given),inactive: -5.28%
15,O=C(COc1ccccc1)OC1CN2CCC1CC2 (stereo not given),inactive: 1.98%
16,COP1(=S)c2c(C)nn(CCC#N)c2N=C(c2ccc(F)cc2)N1C (stereo not given),inactive: -5.13%
17,COc1ccc(N/C(=N/P(=O)(N2CCOCC2)N2CCOCC2)N2CCOCC2)cc1,inactive: -0.66%
18,COc1ccc2nc(NP(=O)(c3ccccc3)c3ccccc3)sc2c1,inactive: 4.33%
19,Cc1c2c(nc3ccccc13)SC(C(Cl)Cl)C2 (stereo not given),inactive: -1.75%
20,O=C(OC1CN2CCC1CC2)C12CC3CC(CC(C3)C1)C2 (stereo not given),inactive: 3.36%
21,Cc1cc(=O)[nH]c(N[N+](=O)[O-])n1,inactive: -0.43%
22,CC(C)NC(=O)NP(=O)(Oc1ccccc1)Oc1ccccc1,inactive: 1.91%
23,CCN(CC)C(=S)SC(NC=O)C(Cl)(Cl)Cl (stereo not given),inactive: -8.67%
24,O=[N+]([O-])c1cc([N+](=O)[O-])c(-c2ccn[nH]2)s1,inactive: -0.76%
25,ClCCSc1nnc(-c2cccnc2)o1,inactive: 4.01%
26,Cc1ccc2nc3c(c(C)c2c1)CC(C(Cl)Cl)S3 (stereo not given),inactive: -4.63%
